What was measured:
SKBR3 cells = assay: SKBR3 Cell Viability Assay; conditions: read-out: MCL1 CV SKBR3 EC50, 72 hours, CellTiter Glo
Protocol: SKBR3 Cell Viability Assay Materials
SKBR3 Cells (ATCC HTB-30) were obtained from ATCC (Manassas, Va.) and cultured in McCoy 5A's medium (ATCC 30-2007)+10% fetal bovine serum (SH30071.03, HyClone, Pittsburgh, Pa.) plus 1× Penicillin-Streptomycin L-glutamine (Corning 30-009-CI, Corning, N.Y.).
The cell viability assay was conducted in a 384-well tissue culture plate (Grenier 781086, Monroe, N.C.) in a total volume of 70 μL. Test compounds were prepared in 1,000×, serially diluted, and pre-spotted into 384-well tissue culture plate by Echo 555 Liquid Handler (Labcyte Inc., San Jose, Calif.). Seventy μL of 6,000 SKBR3 cells were dispensed into each well of the plate and incubated at 37° C. with 5% CO2 for 72 hours. At the end of incubation, 2× CellTiter Glo (CTG) reagents (1 part buffer with 2 parts substrate) (Promega, Madison, Wis.) were prepared, and the plate and the reagent were equilibrated to room temperature for 30 minutes. CTG reagent was added to each plate by Biomek FX at 20 μL/well with 5 times pipetting and mixing to induce cell lysis. Luminescence was read by Envision multimode reader (PerkinElmer). Percent inhibition was calculated as followed: % Inhibition=100%*(Well−Neg)/(Pos−Neg) Neg, negative control, DMSO Pos, positive control, 10 μM Puromycin

By UniProt entry, the sequences of proteins in these tests, tags left out. Residues count along the entry.
UniProt Q07820, 171-327 limits assumed: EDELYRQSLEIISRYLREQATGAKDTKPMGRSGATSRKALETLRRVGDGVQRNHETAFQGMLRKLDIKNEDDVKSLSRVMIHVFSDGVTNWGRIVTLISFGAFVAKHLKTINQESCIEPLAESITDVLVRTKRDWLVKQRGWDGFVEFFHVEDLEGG

MCL1/Bim = MCL1/Bim (Homo sapiens (Human), UniProt Q07820); assay: MCL1/Bim Binding AlphaLISA Assay; conditions: read-out: MCL1/Bim IC50, recombinant human 6xHis-MCL1 (171-327), biotinylated Bim peptide (51-76)
Protocol: MCL1/Bim Binding AlphaLISA Assay.
Inhibition of the MCL1 and Bim interaction was measured in the following AlphaLISA assay.
Recombinant human MCL1 protein (C-terminal 6×His Tagged MCL1 containing residues 171-327) was generated at Gilead Sciences, Inc. (Foster City, Calif.). A biotinylated peptide derived from human Bim (residues 51-76) was purchased from CPC Scientific (Sunnyvale, Calif.). (CPC 834113). AlphaLISA anti-6His- acceptor beads (AL128R), AlphaScreen Streptavidin donor beads (6760002B), and Proxiplate-384 Plus (6008289) were purchased from PerkinElmer.
The AlphaLISA assay was performed in a 384-well Proxiplate in a total volume of […]. The reaction mixture contained 0.0625 nM 6×His-MCL1 (171-327), 0.0625 nM biotinylated-Bim peptide, 10 μg/mL AlphaLISA anti-6×His-AlphaLISA acceptor beads, 40 μg/mL AlphaScreen streptavidin donor beads, and serially diluted test compounds in the binding buffer (20 mM Hepes, pH 7.5 (Teknova H1035); 150 mM NaCl (Promega V4221); 0.002% Brij 35 (Thermo Scientific 20150); 1 mM Dithiothreitol (DTT) Solution (Affymetrix 70726); 0.01% BSA (BioLabs B9000S)). 1,000× test compounds were pre-spotted onto 384-well Proxiplate (Labcyte Echo) by Echo 555 Liquid Handler (Labcyte Inc., San Jose, Calif.) followed by incubation of 5 μL MCL1(171-327) for 1 hour. Then 5 μL Bim (51-76) was added and incubated for 2 hours. Five μL AlphaLISA anti-6His-AlphaLISA acceptor beads were then added for 1 hour followed by addition of 5 μL AlphaScreen streptavidin donor beads for 1 hour. The reaction plates were then read on an Envision multimode reader (PerkinElmer) using AlphaScreen settings. Percent inhibition was calculated as shown below: % Inhibition=100%*(Well−Neg)/(Pos−Neg) Neg: negative control, DMSO Pos: positive control, no MCL1 protein, no biotinylated-Bim peptide

SMILES: CO[C@H]1/C=C/C[C@H](C)C[S@@](=O)(NC(=O)COC2CCOCC2)=NC(=O)c2ccc3c(c2)N(C[C@@H]2CC[C@H]21)C[C@]1(CO3)C[C@@H]2C[C@@H]2c2cc(Cl)ccc21
- EC50 (SKBR3 cells): 100 nM
- IC50 (MCL1/Bim): 0.072 nM

SMILES: COC1CN(Cc2cc(C(=O)N[S@@]3(=O)=NC(=O)c4ccc5c(c4)N(C[C@@H]4CC[C@H]4[C@@H](OC)/C=C/C[C@H](C)C3)C[C@@]3(CCCc4cc(Cl)ccc43)CO5)cn2C)C1
- EC50 (SKBR3 cells): 57.1 nM
- IC50 (MCL1/Bim): 0.04 nM

SMILES: CO[C@H]1/C=C/C[C@H](C)C[S@@](=O)(NC(=O)c2cnn(C)c2)=NC(=O)c2ccc3c(n2)N(C[C@@H]2CC[C@H]21)C[C@]1(CO3)C[C@@H]2C[C@@H]2c2cc(Cl)ccc21
- EC50 (SKBR3 cells): 115 nM
- IC50 (MCL1/Bim): 0.05 nM

SMILES: CO[C@H]1/C=C/C[C@H](C)C[S@@](=O)(NC(=O)c2cc3n(c2)C[C@H](C)OC3)=NC(=O)c2ccc3c(n2)N(C[C@@H]2CC[C@H]21)C[C@@]1(CCCc2cc(Cl)ccc21)CO3
- EC50 (SKBR3 cells): 57.3 nM
- IC50 (MCL1/Bim): 0.22 nM

SMILES: CCn1cc(C(=O)N[S@@]2(=O)=NC(=O)c3ccc4c(c3)N(C[C@@H]3CC[C@H]3[C@@H](OCC3CC3)/C=C/C[C@H](C)C2)C[C@@]2(CCCc3cc(Cl)ccc32)CO4)cn1
- EC50 (SKBR3 cells): 361 nM
- IC50 (MCL1/Bim): 0.124 nM

SMILES: COc1nn(C)cc1C(=O)N[S@@]1(=O)=NC(=O)c2ccc3c(c2)N(C[C@@H]2CC[C@H]2[C@@H](OC)C[C@@H]2[C@H](OC[C@@H]2C)[C@H](C)C1)C[C@@]1(CCCc2cc(Cl)ccc21)CO3 (single isomer, unassigned)
- EC50 (SKBR3 cells): 294 nM
- IC50 (MCL1/Bim): 0.177 nM

From patent publication US11667652B2, “MCL1 inhibitors” (Gilead Sciences, Inc., priority 2019, dated 2023)
